Laboratory results published in patent US8445538B2, “Glucagon receptor antagonist compounds” (Merck Sharp & Dohme Corp., priority 2008, dated 2013).
pIC50: −log10 of the molar value.

Chains of the proteins cited; added tags and fusions are not shown. Residues count along the entry.
UniProt P47871, 26-477 limits assumed: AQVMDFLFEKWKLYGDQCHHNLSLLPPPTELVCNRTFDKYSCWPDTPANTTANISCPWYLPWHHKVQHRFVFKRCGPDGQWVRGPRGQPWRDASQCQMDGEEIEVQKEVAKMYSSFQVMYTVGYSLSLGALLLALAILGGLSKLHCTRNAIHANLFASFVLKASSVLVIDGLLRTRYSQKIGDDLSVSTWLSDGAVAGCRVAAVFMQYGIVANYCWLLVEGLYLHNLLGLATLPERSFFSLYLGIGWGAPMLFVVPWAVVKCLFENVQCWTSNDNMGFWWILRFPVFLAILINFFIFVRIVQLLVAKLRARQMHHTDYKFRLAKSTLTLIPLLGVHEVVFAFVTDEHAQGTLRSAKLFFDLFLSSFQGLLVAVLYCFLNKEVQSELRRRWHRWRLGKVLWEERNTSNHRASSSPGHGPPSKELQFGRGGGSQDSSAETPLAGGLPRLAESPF

Biological target: human glucagon receptor (Homo sapiens, UniProt P47871)
Test: Glucagon Receptor Binding Assay (125I-glucagon, SPA, CHO cell membranes)
Details: 125I-Glucagon binding to membranes of CHO cells expressing cloned human glucagon receptor; more active isomer of indicated compounds
Procedure: Glucagon Receptor Binding Assay
A stable CHO (Chinese hamster ovary) cell line expressing cloned human glucagon receptor was maintained as described (Chicchi, et. al. J Biol Chem 272, 7765-9 (1997); Cascieri, et. al. J Biol Chem 274, 8694-7 (1999)). To determine antagonistic binding affinity of compounds, 0.001-0.003 mg of cell membranes from these cells were pre-incubated with 0.100 mg WGA-coated PVT SPA beads (Amersham) for 20 minutes at room temperature in 25 μL of a buffer containing 50 mM Tris-HCl (pH 7.5), 5 mM MgCl2, 2 mM EDTA, 0.1% BSA and 3% glycerol in Costar 384 well plates with clear bottoms (#3706). Next, 25 μL of ^125I-Glucagon (New England Nuclear, Mass.) (1×10^−14 mol per well) and either 1 μL solutions of test compounds or 0.001 mM unlabeled glucagon or DMSO were added and mixed. After 4-12 hours incubation at room temperature, the radioactivity bound to the cell membranes was determined in a radioactive emission detection counter (Wallac-Microbeta). Data were analyzed using the Data Analyzer software program of Merck & Co., Inc. The IC50 values were calculated using non-linear regression analysis assuming single-site competition.

pIC50: 8.74
SMILES: CCCC(c1ccc(C(=O)NCCC(=O)O)cc1)C(c1ccc(Cl)cc1)c1ccc(Cl)c2ccccc12 (stereo not shown)
